Test results: ChEMBL document CHEMBL3585322, “Synthesis, enantiomeric separation and docking studies of spiropiperidine analogues as ligands of the nociceptin/orphanin FQ receptor” (2014)

Each compound was assayed against Nociceptin receptor (Homo sapiens, UniProt P41146) (assay: Agonist activity at human recombinant NOP receptor expressed in CHO cells co-expressing C-terminally modifed Gaqi5 protein by Fluo-4AM dye based calcium mobilization assay).
`O.O=C(O)C(=O)O.O=C1NCN(c2ccccc2)C12CCN([C@@H]1CCOc3ccccc31)CC2` showed a pEC50 of 7.34.
With `O.O=C(O)C(=O)O.O=C1NCN(c2ccccc2)C12CCN([C@H]1CCOc3ccccc31)CC2` the pEC50 was 6.68.
In the case of `O.O=C(O)C(=O)O.O=C1NCN(c2ccccc2)C12CCN(C1CCOc3ccccc31)CC2` (centres undefined), the pEC50 is reported as 6.8.
Compound `O=C(O)C(=O)O.O=C1NCN(c2ccccc2)C12CCN(C1CCOc3cccc(F)c31)CC2` (centres undefined) has a pEC50 of 6.37.
